One test has as its target LPA1 receptor (Mus musculus, UniProt P61793). Put plainly: antagonism of LPA-evoked GTP[γ35S] binding at LPA1. To be noted: for antagonist activity at LPA1, in words: GTP[γ35S] binding. In kind it is biochemical. Background: GTPγS is a poorly hydrolysed GTP analogue; its binding reports G protein activation.
Another test has as its target LPA3 receptor (Homo sapiens, UniProt Q9UBY5). Put plainly: antagonism of LPA-evoked GTP[γ35S] binding at LPA3.
The target of another test is mouse LPA1 (Mus musculus, UniProt P61793). The test is described as follows: cAMP accumulation in RH7777 cells expressing LPA1. To be noted: RH7777 cells stably expressing LPA1.
The target of another test is human LPA2 (Homo sapiens, UniProt Q9HBW0). The test is described as follows: antagonism of LPA-evoked GTP[γ35S] binding at LPA2.

Sequences of proteins named here, by UniProt entry; tags and fusion partners are left off.
UniProt P61793, whole entry: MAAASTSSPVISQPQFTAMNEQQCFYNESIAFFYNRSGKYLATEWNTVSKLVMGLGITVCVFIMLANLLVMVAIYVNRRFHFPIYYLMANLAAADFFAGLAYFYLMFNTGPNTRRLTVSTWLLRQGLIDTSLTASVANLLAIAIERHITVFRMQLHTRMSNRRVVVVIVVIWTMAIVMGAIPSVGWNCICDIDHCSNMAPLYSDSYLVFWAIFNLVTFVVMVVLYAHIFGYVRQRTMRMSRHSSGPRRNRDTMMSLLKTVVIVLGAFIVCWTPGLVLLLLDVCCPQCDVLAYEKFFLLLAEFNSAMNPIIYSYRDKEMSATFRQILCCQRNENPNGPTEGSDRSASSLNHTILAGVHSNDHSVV
UniProt Q9UBY5, whole entry: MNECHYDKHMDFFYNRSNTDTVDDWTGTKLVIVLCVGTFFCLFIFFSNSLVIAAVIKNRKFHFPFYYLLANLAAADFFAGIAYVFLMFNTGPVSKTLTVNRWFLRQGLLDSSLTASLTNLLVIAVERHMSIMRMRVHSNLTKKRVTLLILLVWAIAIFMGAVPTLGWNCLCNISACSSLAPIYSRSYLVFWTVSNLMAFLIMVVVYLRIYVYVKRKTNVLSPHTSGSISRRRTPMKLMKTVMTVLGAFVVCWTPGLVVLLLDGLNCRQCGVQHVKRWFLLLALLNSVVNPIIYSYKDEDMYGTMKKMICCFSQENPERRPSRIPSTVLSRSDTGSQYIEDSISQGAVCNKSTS
UniProt Q9HBW0, whole entry: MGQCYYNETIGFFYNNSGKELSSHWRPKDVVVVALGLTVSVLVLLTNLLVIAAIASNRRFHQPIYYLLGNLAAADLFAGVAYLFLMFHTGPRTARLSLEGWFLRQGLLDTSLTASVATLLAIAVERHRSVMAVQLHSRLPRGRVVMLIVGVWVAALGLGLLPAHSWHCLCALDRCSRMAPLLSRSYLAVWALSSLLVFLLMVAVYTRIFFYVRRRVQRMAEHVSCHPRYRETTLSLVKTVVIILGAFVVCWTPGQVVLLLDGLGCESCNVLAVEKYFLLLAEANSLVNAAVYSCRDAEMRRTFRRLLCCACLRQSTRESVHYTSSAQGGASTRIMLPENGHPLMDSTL

These results are taken from US7820703B2, “Lysophosphatidic acid receptor selective antagonists” (University of Virginia Patent Foundation, priority 2004, dated 2010).

As to `CCCCCCCC/C=C\CCCCCCCC(=O)N[C@@H](Cc1ccc(OCc2ccccc2)cc1)CC(O)P(=O)(O)O` (stereo partly drawn), at LPA1 receptor, the “antagonist activity at LPA1, in words” value was “modest inhibitory activity”.
For `CCCCCCCC/C=C\CCCCCCCC(=O)N[C@@H](COP(=O)(O)O)Cc1ccc(OCc2cc(OC)ccn2)cc1`, the “antagonist activity at LPA3, in words” value at LPA3 receptor was “particularly potent and LPA3-selective”.
With `CCCCCCCC/C=C\CCCCCCCC(=O)N[C@@H](COP(=O)(O)O)Cc1ccc(OCc2ccccn2)cc1`, on LPA3 receptor, the “antagonist activity at LPA3, in words” value is on record as “improves on the antagonist activity of 26 by approximately one log order”. Further, the “antagonist activity at LPA1, in words” value at LPA1 receptor is recorded as “improves on the antagonist activity of 26 by approximately one log order”.
Consider `CCCCCCCC/C=C\CCCCCCCC(=O)N[C@@H](COP(=O)(O)O)Cc1ccc(OCc2cc(OCCOC)ccn2)cc1`, for which the inhibitory constant (Ki) – broadly, a dissociation constant, usually derived from enzyme kinetics or from competition with a known ligand – at LPA1 receptor (read-out: LPA1 Ki, determined by Schild regression) worked out at 35 nM.
For `CCCCCCCC/C=C\CCCCCCCC(=O)N[C@H](COP(=O)(O)O)Cc1ccc(OCc2ccccc2)cc1`, on mouse LPA1, the “block of the inhibition of forskolin-induced increases in cAMP levels” value is reported as “inhibited”. Also, the “antagonist activity at LPA2, in words” value on human LPA2 was “lack of antagonist activity”. The “antagonist activity at LPA3, in words” value on LPA3 receptor was “surmountable antagonist”. For the same molecule, the “antagonist activity at LPA1, in words” value on LPA1 receptor was “surmountable antagonist”.
